Our source for the IC50 values is ChEMBL document CHEMBL4706546, “Sulfoximines as Rising Stars in Modern Drug Discovery? Current Status and Perspective on an Emerging Functional Group in Medicinal Chemistry” (J Med Chem, 2020).

In this experiment the target is T1, Sterol 26-hydroxylase, mitochondrial (Homo sapiens, UniProt Q02318).
T1 sequence (Q02318 whole entry): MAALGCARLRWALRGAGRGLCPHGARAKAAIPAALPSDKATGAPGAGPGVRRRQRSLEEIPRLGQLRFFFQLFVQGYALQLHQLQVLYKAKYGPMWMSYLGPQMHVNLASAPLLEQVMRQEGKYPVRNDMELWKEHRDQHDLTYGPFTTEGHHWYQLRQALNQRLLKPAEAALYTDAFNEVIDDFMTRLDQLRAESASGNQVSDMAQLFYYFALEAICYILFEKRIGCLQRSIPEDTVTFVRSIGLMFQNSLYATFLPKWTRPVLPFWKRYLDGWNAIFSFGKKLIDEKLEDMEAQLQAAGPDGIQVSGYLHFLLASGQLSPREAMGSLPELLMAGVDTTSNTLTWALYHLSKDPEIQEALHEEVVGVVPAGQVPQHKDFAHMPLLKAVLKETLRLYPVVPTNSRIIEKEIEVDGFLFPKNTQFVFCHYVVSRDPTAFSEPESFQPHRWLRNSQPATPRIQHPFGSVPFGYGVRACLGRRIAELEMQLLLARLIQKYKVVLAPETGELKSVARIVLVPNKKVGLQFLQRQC
Description: biochemical.

Molecule `C=C1/C(=C\C=C2/CCC[C@]3(C)[C@@H]([C@H](C)CC[S@](=N)(=O)c4ccccc4)CC[C@@H]23)C[C@@H](O)C[C@@H]1O` displayed an IC50 of over 1 µM.
